Laboratory results taken from PubChem BioAssay AID720511 (Broad Institute, 2013).
Only a part is listed here, and it is no random draw. The source made the active and inactive calls.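 Rule for the calls: active = mean added fluorescence quench of at least 8% versus neutral control, with both replicates also reaching 8%; inconclusive = only one of the mean or replicate conditions met; inactive = mean below 8% and not both replicates reaching 8%.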

Assay: F508del CFTR correction, initial screen, CFBE line, single point (AID 720511);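 note: cells transiently co-express mutant CFTR-F508del with the halide-sensitive YFP; corrector assay measuring rescue of mutant channel to the surface after 24 h compound exposure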
Settings: CFBE cells, YFP halide quenching, at 7.58 µM, hits give high values, % fluorescence drop versus neutral controls, stimulated with forskolin plus potentiator P3

Row | SMILES | activity (quench increase)
1 | CCC(=O)N(c1ccccc1)C1(COC)CCN(CCc2cccs2)CC1 | inactive: -0.244%
2 | CCC(=O)N(c1ccccc1)C1(COC)CCN(CCn2nnn(CC)c2=O)CC1 | inactive: -0.513%
